{"source": "paper PMC8404221", "about": "(European journal of pharmaceutical sciences : official …, 2021)", "biological_target": "Monoamine oxidase-A (MAO-A) (Homo sapiens, UniProt P21397)", "experiment": "biochemical", "settings": "MAO-A IC50, MAO-A Glo", "note": "pIC50: −log10 of the molar value.", "data": [{"molecule": "c1ccc2c(c1)[nH]c1cnccc12", "note": "[Norharmane, norharmane]", "values": [{"measurement": "pIC50", "result": 5.37}]}]}
